Laboratory results: PMC4447534 (ChemMedChem, 2015)

Test system: Vero cells
Test: Cytotoxicity for Vero cells
Format: cell-based
Settings: one experiment in triplicate, means ± S.D.

α-Naphtyloxyphenylethyl Thiocyanate [Compound 24]
Cytotoxicity ED50: 70.1 ± 7.6 µM
